# Reference: US4923872A, “Analogues of pyrrolo[3,2d]pyrimidin-4-ones” (Warner-Lambert Co., priority 1989, dated 1990)
# Tested on: purine nucleoside phosphorylase
# Test: HPLC-1 in vivo inhibition of purine nucleoside phosphorylase
# Settings: 150 mg/kg; PO
# Description: PNP-4 activity for the compounds of Formula I is measured radiochemically by measuring the formation of [^14- C]-hypoxanthine from [^14- C]inosine [Biomedicine, 33, 39 (1980)] using human erythrocyte as the enzyme source. An in vivo inhibition of purine nucleoside phophorylase (HPLC-1) enzyme assay is used essentially as disclosed in the Annals of New York Academy of Sciences, Volume 451, Page 313 (1985) to further show the activity of the compounds of Formula I of the present invention. […] Clinically it has been shown that modulation and/or removal of T-cells by throacic duct drainage, lymphapheresis or total lymphoid irradiation gave partial to complete relief from rheumatoid arthritis in patients who were totally refractory to other forms of therapy (A. Tanay, et al, Arthritis and Rheumatism, Vol. 30, No. 1, p 1 (1987). S. Strober, et al, Annual of Internal Medicine, V-102, No. 4, 441-449 (1985); H. G. Nusslein, et al, Arthritis and Rheumatism, V-28, No. 11, 1205-1210 (1985); E. Brahn, et al, ibid, V-27, No. 5, 481-487 (1984), and J. Karsh, et al, ibid, V-24, No 7, 867-873 (1981)). […] (M. E. Weinblatt, et al, Arthritis and Rheumatism, V-30, No. 1 pp 11-17 (January, 1987); O. Forre, et al, Arthritis and Rheumatism, V-30, No. 1, pp 88-92 (January, 1987); M. Dougados, et al, Arthritis and Rheumatism, Vol. 30, No. 1, pp 83-87 (January, 1987);
compound,measurement,value
"Nc1nc2c(Cc3ccsc3)c(N)[nH]c2c(=O)[nH]1 [Example 9, 2,6-Diamino-3,5-dihydro-7-(3-thienylmethyl)-4H-pyrrolo [3,2-d]pyrimidin-4-one]",HPLC-1 Guanosine,0.26 µM
same,HPLC-1 Inosine,2.62 µM
